Measured values reported in ChEMBL document CHEMBL4406803, “A- and D-Ring Structural Modifications of an Androsterone Derivative Inhibiting 17β-Hydroxysteroid Dehydrogenase Type 3: Chemical Synthesis and Structure-Activity Relationships” (J Med Chem, 2019).

Target: T1, 17-beta-hydroxysteroid dehydrogenase type 3 (Homo sapiens) (UniProt P37058)
T1 sequence (whole entry): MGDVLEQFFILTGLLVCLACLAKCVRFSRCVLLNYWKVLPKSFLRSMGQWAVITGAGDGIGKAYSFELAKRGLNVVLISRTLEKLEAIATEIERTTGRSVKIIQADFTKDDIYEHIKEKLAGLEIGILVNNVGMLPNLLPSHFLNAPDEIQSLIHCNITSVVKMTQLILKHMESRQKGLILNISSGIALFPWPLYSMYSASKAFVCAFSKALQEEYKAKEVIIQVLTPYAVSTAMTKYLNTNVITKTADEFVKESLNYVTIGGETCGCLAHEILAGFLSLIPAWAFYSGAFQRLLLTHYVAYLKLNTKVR
Test: Potency index, ratio of RM-532-105 IC50 to test compound IC50 for 17beta-HSD3 (unknown origin) expressed in human LNCAP cells
Format: cell-based

Ratio IC50	Compound
0.41	CC1CN(S(=O)(=O)c2ccccc2C(F)(F)F)C(C)CN1C[C@@]1(O)CC[C@@]2(C)[C@@H](CC[C@@H]3[C@@H]2CC[C@]2(C)/C(=N/O)CC[C@@H]32)C1 (stereo not given in full)
4.5	CC1CN(S(=O)(=O)c2ccccc2C(F)(F)F)C(C)CN1CC(O)c1ccc2c(c1)CC[C@@H]1[C@@H]2CC[C@]2(C)C(=O)CC[C@@H]12 (single isomer, unassigned; diastereomer B)
0.9	CC1CN(S(=O)(=O)c2ccccc2C(F)(F)F)C(C)CN1C(=O)c1ccc2c(c1)CC[C@@H]1[C@@H]2CC[C@]2(C)C(=O)CC[C@@H]12 (stereo not given in full)
0.53	CC1CN(S(=O)(=O)c2ccccc2C(F)(F)F)C(C)CN1Cc1cc2c(cc1O)CC[C@@H]1[C@@H]2CC[C@]2(C)C(=O)CC[C@@H]12 (stereo not given in full)
0.69	CC1CN(S(=O)(=O)c2ccccc2C(F)(F)F)C(C)CN1CCc1ccc2c(c1)CC[C@@H]1[C@@H]2CC[C@]2(C)C(=O)CC[C@@H]12 (stereo not given in full)
